According to US5610174A, “Use of α1A -selective adrenoceptor agonists for the treatment of urinary incontinence” (priority 1995, dated 1997):

Tests used:
[1] = biological target: T1, human urethra (α1-adrenoceptor) (Homo sapiens, UniProt P35348); experiment: Contractile study in isolated human male urethra; settings: versus phenylephrine-induced contraction; read-out: pKB Human Urethra Male (converted)
T1 construct: Tissue samples from the proximal urethra of male humans; from tissue; host or cells: human male proximal urethra strips
T1 sequence (P35348 1-466): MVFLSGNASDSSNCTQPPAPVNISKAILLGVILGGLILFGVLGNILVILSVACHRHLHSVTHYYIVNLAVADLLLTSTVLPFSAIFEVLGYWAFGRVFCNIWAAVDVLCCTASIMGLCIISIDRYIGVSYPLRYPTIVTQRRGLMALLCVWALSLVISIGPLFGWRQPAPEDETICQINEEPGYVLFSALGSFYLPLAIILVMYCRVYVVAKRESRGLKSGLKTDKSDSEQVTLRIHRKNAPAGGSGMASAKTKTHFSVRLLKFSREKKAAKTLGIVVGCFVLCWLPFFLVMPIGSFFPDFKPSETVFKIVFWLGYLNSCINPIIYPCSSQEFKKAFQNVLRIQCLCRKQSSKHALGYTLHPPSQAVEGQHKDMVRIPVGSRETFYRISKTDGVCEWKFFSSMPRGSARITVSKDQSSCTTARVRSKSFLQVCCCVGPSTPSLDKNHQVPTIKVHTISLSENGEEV

human α1C adrenoceptor = biological target: T2, human α1C adrenoceptor (Homo sapiens, UniProt P35348); experiment: biochemical; settings: Table 2; antagonists; versus 3H-prazosin; read-out: pKI (antagonist affinity, 3H-prazosin binding) hα1C (converted)
T2 sequence (P35348 1-466): T1 sequence (P35348 1-466)

[2] = biological target: T3, dog BN, female (α1-adrenoceptor) (Canis lupus, UniProt A0A8I3NK63); experiment: Contractile study in isolated female dog bladder neck
T3 sequence (A0A8I3NK63 1-466): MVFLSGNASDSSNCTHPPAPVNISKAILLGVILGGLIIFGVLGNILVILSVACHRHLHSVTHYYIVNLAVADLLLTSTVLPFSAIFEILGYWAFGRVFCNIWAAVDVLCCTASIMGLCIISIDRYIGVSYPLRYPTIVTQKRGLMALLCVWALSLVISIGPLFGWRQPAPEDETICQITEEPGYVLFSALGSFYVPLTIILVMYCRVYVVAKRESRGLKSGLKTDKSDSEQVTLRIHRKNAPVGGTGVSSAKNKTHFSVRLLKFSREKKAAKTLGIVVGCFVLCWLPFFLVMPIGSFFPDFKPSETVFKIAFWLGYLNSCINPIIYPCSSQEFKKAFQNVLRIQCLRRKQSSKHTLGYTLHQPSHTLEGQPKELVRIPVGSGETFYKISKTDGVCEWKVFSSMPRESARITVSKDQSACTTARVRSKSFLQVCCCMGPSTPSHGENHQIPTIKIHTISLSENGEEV

[3] = biological target: T4, dog BN, male (α1-adrenoceptor) (Canis lupus, UniProt A0A8I3NK63); experiment: Contractile study in isolated male dog bladder neck; settings: versus phenylephrine-induced contraction
T4 sequence (A0A8I3NK63 1-466): T3 sequence (A0A8I3NK63 1-466)

[4] = biological target: T5, female dog urethra (α1-adrenoceptor) (Canis lupus, UniProt A0A8I3NK63); experiment: Contractile study in isolated female dog urethra; settings: agonist SK&F 102652
T5 sequence (A0A8I3NK63 1-466): T3 sequence (A0A8I3NK63 1-466)

| Kb [1] | Ki (human α1C adrenoceptor) | Prazosin pKB Bladder Neck ([2]; female dog bladder neck, agonist SK&F 102652) | pKB Dog BN Female ([2]; versus phenylephrine-induced contraction) | pKB Dog BN Male [3] | Prazosin pKB Urethra [4] | Structure (SMILES) |
| --- | --- | --- | --- | --- | --- | --- |
| 31.6 nM | 158 nM | – | – | – | – | COc1ccccc1N1CCN(CCN2C(=O)CC3(CCCC3)CC2=O)CC1 [BMY 7378] |
| – | – | 7.8 | 8.0 | 8.2 | 8.5 | COc1cc2nc(N3CCN(C(=O)c4ccco4)CC3)nc(N)c2cc1OC [Prazosin] |
